From ChEMBL document CHEMBL3244256 (J Med Chem, 1979)

What was measured:
Mus musculus [1] = assay: Antiradiation activity in po dosed whole-body gamma-irradiated mouse assessed as increase in mouse survival rate compound administered 30 mins prior irradiation
Mus musculus [2] = assay: Antiradiation activity in ip dosed whole-body gamma-irradiated mouse assessed as increase in mouse survival rate compound administered 15 mins prior irradiation
Mus musculus [3] = assay: Antiradiation activity in po dosed whole-body gamma-irradiated mouse assessed as mouse survival compound administered 60 mins prior irradiation measured after 30 days relative to control
Mus musculus [4] = assay: Antiradiation activity in ip dosed whole-body gamma-irradiated mouse assessed as mouse survival compound administered 15 mins prior irradiation measured after 30 days relative to control
Mus musculus [5] = assay: Antiradiation activity in po dosed whole-body gamma-irradiated mouse assessed as mouse survival compound administered 30 mins prior irradiation measured after 30 days relative to control
Mus musculus [6] = assay: Antiradiation activity in po dosed whole-body gamma-irradiated mouse assessed as increase in mouse survival rate compound administered 60 mins prior irradiation
Mus musculus [7] = assay: Antiradiation activity in po dosed whole-body gamma-irradiated mouse assessed as mouse survival compound administered 30 to 60 mins prior irradiation measured after 30 days relative to control
Mus musculus [8] = assay: Antiradiation activity in po dosed whole-body gamma-irradiated mouse assessed as increase in mouse survival rate compound administered 30 to 60 mins prior irradiation
Mus musculus [9] = assay: Antiradiation activity in ip dosed whole-body gamma-irradiated mouse assessed as increase in mouse survival rate compound administered 30 mins prior irradiation
Mus musculus [10] = assay: Antiradiation activity in ip dosed whole-body gamma-irradiated mouse assessed as mouse survival compound administered 30 mins prior irradiation measured after 30 days relative to control

Structure (SMILES) | MED (Mus musculus [1]) [mg/kg] | ED50 (Mus musculus [2]) [mg/kg] | MED (Mus musculus [2]) [mg/kg] | Survival (Mus musculus [3]) [%] | Survival (Mus musculus [4]) [%] | Survival (Mus musculus [5]) [%] | MED (Mus musculus [6]) [mg/kg] | Survival (Mus musculus [7]) [%] | MED (Mus musculus [8]) [mg/kg] | ED50 (Mus musculus [9]) [mg/kg] | MED (Mus musculus [9]) [mg/kg] | Survival (Mus musculus [10]) [%]
NCCCC[C@H](N)CSP(=O)(O)O | 500 | 25 | 62.5 | 10 | 70 | 80 | 500 | – | – | – | – | –
NCCC[C@H](N)CSP(=O)(O)O | 1000 | 54 | 200 | – | 100 | 0 | – | – | – | – | – | –
NCC[C@H](N)CSP(=O)(O)O | 1000 | 83 | 250 | – | 90 | 0 | – | – | – | – | – | –
NCC(N)CSP(=O)(O)O (stereo unspecified) | – | – | – | – | – | – | – | 0 | 800 | 230 | 400 | 80
NCCCCC(N)CSP(=O)(O)O (stereo unspecified) | 500 | 24 | 250 | 20 | 90 | 60 | 500 | – | – | – | – | –
NCCCCCC(N)CSP(=O)(O)O (stereo unspecified) | 800 | 94 | 200 | 30 | 100 | 0 | 400 | – | – | – | – | –
NCCCC(N)CSP(=O)(O)O (stereo unspecified) | 1000 | 100 | 250 | – | 100 | 0 | – | – | – | – | – | –
